## Binding of CDR-mutated scFvs to a peptide of the spike HR2 region

Target: peptide PDVDLGDISGINAS, taken from heptad repeat 2 (HR2) of SARS-CoV-2 spike.

Each scFv is VH, a 15-residue (Gly4Ser)3 linker, VL, as in the parent Ab-95, and differs from it in the CDRs of the light chain only.
VH: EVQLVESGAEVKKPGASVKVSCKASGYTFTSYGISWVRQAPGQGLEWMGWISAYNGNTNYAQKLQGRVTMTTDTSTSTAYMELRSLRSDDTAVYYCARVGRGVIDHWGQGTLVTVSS
VL: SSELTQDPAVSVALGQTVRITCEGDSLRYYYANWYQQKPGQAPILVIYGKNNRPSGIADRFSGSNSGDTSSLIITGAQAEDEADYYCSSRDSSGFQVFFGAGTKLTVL

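The parent was found by panning a naive human phage display library on the peptide. In library AAYL52, one, two or three CDR residues were substituted; doubles and triples were drawn at random. AlphaSeq pools MATa yeast showing the antibodies with MATalpha yeast showing the peptide. Binding brings cells together so that they mate, and sequencing counts the barcode pairs among the diploids. The ratio of observed to expected reads was calibrated, replicate by replicate, on BCL2-family standards whose Kd was known from biolayer interferometry. Mating was done three times.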

Variants are written as CDR1, CDR2 and CDR3 of the light chain (limits as in the source). Parent: EGDSLRYYYAN, GKNNRPS, SSRDSSGFQVF. The read-out is the apparent dissociation constant on a log10 scale (nM): the lower, the stronger. A mean of the replicates is given; it leaves out those without a signal. "ND" means that the variant was in the library but no mating with the target was seen in that replicate; the authors take this as a sign of poor binding, and no number exists.

CDR-L1,CDR-L2,CDR-L3,"log10 Kd, replicates",mean log10 Kd (nM),signal with controls
EGDSLSYYYAN,GKDNRPS,SSRDLSGFQVF,2.45 2.19 2.32,2.32,3 of 9 (3.68)
EGDSLRGYYAN,FHNNRPS,SSRDSSGFQVF,3.54 ND 2.66,3.10,5 of 9 (3.96)
EVDQLRYFYAN,GKNNRPS,SSRDSSGFQVF,ND ND ND,ND,3 of 9 (3.62)
EGDSLRYYYAN,GKNNRPR,SGRDSSGFQVH,3.91 3.52 4.28,3.90,0 of 9
VGDSLRYYYAN,GKNNRKS,SSRDSSYFQVF,ND ND ND,ND,2 of 9 (3.78)
EGDSLRYYYAE,GKNNRPS,SSRQFSGFQVF,3.79 2.79 3.49,3.36,4 of 9 (4.09)
EGDSLRYRYAN,GKNNRPS,SSRDSYGFQNF,2.82 3.01 2.49,2.77,2 of 9 (3.94)
EGDSLRYLYIN,GKNNRPS,SSRDTSGFQVF,ND 3.43 ND,3.43,2 of 9 (3.78)
EGDNLRYYYAN,GKNNKYS,SSRDSSGFQVF,3.48 4.72 4.40,4.20,3 of 9 (3.93)
EGDSERYYYAH,GKNNRPS,SSRDSSGKQVF,ND ND ND,ND,2 of 9 (3.91)
EGDSLRYYYAN,GKKNRPS,SSRSSSGFQVF,4.11 3.50 3.62,3.74,5 of 9 (4.03)
EGDSLRTYYKN,GKNNRPS,NSRDSSGFQVF,3.44 ND 3.79,3.61,3 of 9 (3.98)
EGDSLRYYYAN,GKNNRPS,KPRDSSGFQVT,3.96 4.62 ND,4.29,2 of 9 (3.98)
CGDSLRYYYAN,GKFNRPS,SSRDSSGFQVY,ND 5.58 ND,5.58,3 of 9 (3.74)
EGDSLRYYYAN,GKNNRPS,SSRHSSGFRVA,4.27 ND 3.17,3.72,2 of 9 (4.33)
EGDSLRYYYAN,GKNNDHS,SRRDSSGFQVF,4.34 3.87 2.44,3.55,4 of 9 (4.14)
EGGCHRYYYAN,GKNNRPS,SSRDSSGFQVF,4.17 5.01 ND,4.59,3 of 9 (4.88)
EGDSLRYHYEN,GKNNRPM,SSRDSSGFQVF,2.37 2.18 1.62,2.06,5 of 9 (4.08)
EGDSLRYYYAN,GGNNWPS,SSRISSGFQVF,5.16 ND 4.16,4.66,4 of 9 (3.65)
EGDSLRYYYAM,GKNNRMS,SSRDSSGFQVF,3.59 2.64 3.63,3.29,5 of 9 (4.00)
EGDSLGYYYAN,GFNNRPS,SSRDSSGFLVF,ND 5.15 3.76,4.45,2 of 9 (4.06)
EGDSLRYYYAN,GANERPS,SSRDSSGFQAF,2.95 2.39 2.80,2.71,1 of 9 (3.33)
IGDSLRYRYAN,GKNNRPS,SSRDSRGFQVF,1.88 1.61 1.81,1.76,1 of 9 (3.69)
EGDSLRYYYRN,GKNNRPS,SSRDSSGFFMF,3.76 ND 4.28,4.02,3 of 9 (3.84)
EGDSGRYRYAN,CKNNRPS,SSRDSSGFQVF,5.06 5.23 ND,5.15,4 of 9 (4.14)
EGDSERYYYAN,GKNNRPS,SSRDSTGFQLF,ND ND 3.99,3.99,1 of 9 (4.13)
PGDSLICYYAN,GKNNRPS,SSRDSSGFQVF,3.47 4.45 ND,3.96,1 of 9 (3.69)
EGDSLRYYYAN,GKNNRPS,VRRDSSGFQVI,ND ND ND,ND,0 of 9
EGESHRYYYAN,GKNNRPS,SSRDSSMFQVF,ND 4.88 ND,4.88,4 of 9 (3.68)
EGDSLRYYIAN,GKNNRPS,SSRNGSGFQVF,3.11 5.49 ND,4.30,1 of 9 (2.58)
FGDSLRYYYAN,GKNNRPS,ISRDSSGFQCF,ND ND ND,ND,0 of 9
EGDSLRYYYAN,VKNNRPS,SSRDSSGFRVF,3.04 4.71 ND,3.88,4 of 9 (3.93)
EGMSQRYYYAN,GKNQRPS,SSRDSSGFQVF,ND 2.98 2.02,2.50,1 of 9 (3.51)
EGDSLRYYYAN,GKNQHPS,SSRDYSGFQVF,3.85 2.50 4.06,3.47,2 of 9 (2.90)

Excerpt, the first 5 entries:

{"CDR-L1": "EGDSLSYYYAN", "CDR-L2": "GKDNRPS", "CDR-L3": "SSRDLSGFQVF", "log10 Kd, replicates": "2.45 2.19 2.32", "mean log10 Kd (nM)": "2.32", "signal with controls": "3 of 9 (3.68)"}
{"CDR-L1": "EGDSLRGYYAN", "CDR-L2": "FHNNRPS", "CDR-L3": "SSRDSSGFQVF", "log10 Kd, replicates": "3.54 ND 2.66", "mean log10 Kd (nM)": "3.10", "signal with controls": "5 of 9 (3.96)"}
{"CDR-L1": "EVDQLRYFYAN", "CDR-L2": "GKNNRPS", "CDR-L3": "SSRDSSGFQVF", "log10 Kd, replicates": "ND ND ND", "mean log10 Kd (nM)": "ND", "signal with controls": "3 of 9 (3.62)"}
{"CDR-L1": "EGDSLRYYYAN", "CDR-L2": "GKNNRPR", "CDR-L3": "SGRDSSGFQVH", "log10 Kd, replicates": "3.91 3.52 4.28", "mean log10 Kd (nM)": "3.90", "signal with controls": "0 of 9"}
{"CDR-L1": "VGDSLRYYYAN", "CDR-L2": "GKNNRKS", "CDR-L3": "SSRDSSYFQVF", "log10 Kd, replicates": "ND ND ND", "mean log10 Kd (nM)": "ND", "signal with controls": "2 of 9 (3.78)"}

Parent in this assay: reference entry 2.31, copy in this library 2.25. Empty control strains, which show no peptide, gave a signal in 28% of pairings with library AAYL52; the median was 3.91 and 95% of these signals were weaker than 2.90. No background was subtracted. The control count says in how many pairings with the empty strains this scFv gave a signal, with their mean in brackets.

Values reported by Engelhart et al. 2022, doi:10.1038/s41597-022-01779-4 (FLAb copy).